The test deals with D-galactosamine animal model of septic shock. As to the kind of experiment: D-galactosamine animal model of septic shock (protection against lethal effects of LPS). Type of test: in vivo. The conditions noted are these: treated about 1 hour before i.p. challenge of D-galactosamine and LPS, by 18 hours after challenge, test compound 100 mg/kg i.p.

In the case of `CC(=O)CCCCn1c(=O)c2c(ncn2C)n(C)c1=O` [Pentoxifylline], the mice killed is 7 out of 8. Where the note is “mice”, this compound came in with a protection of 12.5%.

For the origin of these results see patent US6420373B1, “9-N-Bicyclic nuceoside agents useful as selective inhibitors of proinflammatory cytokines” (Merrell Pharmaceuticals Inc., priority 1993, dated 2002).
